This passage reports Kd results from patent US20200369754A1 (published 2020).

The test concerns the target T1, Tau peptide A6940 (biotin (bound via biotin to a streptavidin biosensor in the Octet assay; position of the biotin not stated)).
T1 peptide: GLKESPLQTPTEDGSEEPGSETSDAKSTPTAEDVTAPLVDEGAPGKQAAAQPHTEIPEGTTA
Nature of the test: ITC. In general terms: Isothermal titration calorimetry measures the heat released or taken up as one component is titrated into another.

The Kd is the free concentration of one partner at which half of the binding sites on the other are occupied at equilibrium, for simple one-to-one binding. A high value points to lower affinity.

B1: CBTAU-28.1 wild type (antibody, V domains shown)
VH: QVQLQQSGAEVKKPGESLKISCEASGYSFTNYWIGWVRQMPGKGLEWMGIIYPGDSDTRYSPPFQGQVTITADRSITTAYLEWSSLKASDTAMYYCARVGRPSKGGWFDPWGQGTLVTVSS
VL: DIQMTQSPDSLAVSLGERATINCESSQTLLYSSNEKNYLAWYQQKPGQPPKLLISWASTPESGVPDRFSGSGSGTSFTLTISSLQAEDVAVYYCQQYYNSPYTFGQGTRLEIK
For the molecule B1, binding was put at a Kd of 880 nM.
